Measured values as given in patent publication EP2710378B1, “METHOD TO PROGNOSE VIRAL INFECTION BY MEASURING T CELL RESPONSE OR AUTO-ANTIBODIES TO APOPTOTIC EPITOPES” (Università degli Studi di Roma "La Sapienza", priority 2011, dated 2012).
Where two headings read alike, the source gives them in different places.

Tests used:
[1] = biological target: A*0206 (Homo sapiens, UniProt P04439, D140Y/D185E/D98H/E176V/E277Q/F33Y/G131W/G231S/I119V/I121R/I166T/I218V/L300P/L318F/N151K/N90K/P208A/P217A/Q86G/Q94H/R138H/R169H/T345S); assay: HLA-A2 binding affinity of synthetic peptides (A*0206); conditions: read-out: Binding capacity (IC50§ nM) A*0206
[2] = biological target: A*6802 (Homo sapiens, UniProt P04439, A269V/D140Y/D185E/E176V/E277Q/E87N/F33Y/G231S/I121R/I166T/I218V/L180W/L300P/L318F/N151K/P208A/P217A/Q86R/R138H/R169H/S129P/T345S/V36M); assay: HLA-A2 binding affinity of synthetic peptides (A*6802); conditions: read-out: Binding capacity (IC50§ nM) A*6802
[3] = test system: HLA-A2; type: binding, Human
[4] = biological target: A*0201 (Homo sapiens, UniProt P04439, D140Y/D185E/D98H/E176V/E277Q/G131W/G231S/I119V/I121R/I166T/I218V/L300P/L318F/N151K/N90K/P208A/P217A/Q86G/Q94H/R138H/R169H/T345S); assay: HLA-A2 binding affinity of synthetic peptides (A*0201); conditions: read-out: Binding capacity (IC50§ nM) A*0201, 50% inhibitory nanomolar concentration
[5] = biological target: A*0203 (Homo sapiens, UniProt P04439, A173T/D140Y/D185E/D98H/E277Q/G131W/G231S/I119V/I121R/I166T/I218V/L180W/L300P/L318F/N151K/N90K/P208A/P217A/Q86G/Q94H/R138H/R169H/T345S); assay: HLA-A2 binding affinity of synthetic peptides (A*0203); conditions: read-out: Binding capacity (IC50§ nM) A*0203; 50% inhibitory nanomolar concentration
[6] = biological target: A*0202 (Homo sapiens, UniProt P04439, D140Y/D185E/D98H/E176V/E277Q/G131W/G231S/I119L/I121R/I166T/I218V/L180W/L300P/L318F/N151K/N90K/P208A/P217A/Q67R/Q86G/Q94H/R138H/R169H/T345S); assay: HLA-A2 binding affinity of synthetic peptides (A*0202); conditions: read-out: Binding capacity (IC50§ nM) A*0202; HLA-A2 binding affinity of synthetic peptides; 50% inhibitory nanomolar concentration; dash = IC50 >50000 nM
[7] = HLA-A2 binding affinity of synthetic peptides, 50% inhibitory nanomolar concentration, dash = IC50 >50000 nM
[8] = number of the five alleles A*0201, A*0202, A*0203, A*0206, A*6802 bound
[9] = HLA-A2 binding affinity of synthetic peptides, dash = IC50 >50000 nM
[10] = 50% inhibitory nanomolar concentration

SMILES	IC50 [2, 7] [nM]	Alleles bound [3, 8]	further results
CC[C@H](C)[C@H](NC(=O)[C@H](C)NC(=O)[C@H](Cc1ccc(O)cc1)NC(=O)[C@@H](NC(=O)[C@H](Cc1c[nH]cn1)NC(=O)[C@@H]1CCCN1C(=O)[C@@H]1CCCN1C(=O)[C@H](CCSC)NC(=O)[C@@H](N)CCC(=O)O)[C@@H](C)CC)C(=O)O			IC50 ([1]; Table 11, peptides derived from apoptotic cell-associated proteins, pools 1-4): 85 nM
CC[C@H](C)[C@H](N)C(=O)N[C@@H](CC(C)C)C(=O)N[C@@H](CCC(=O)O)C(=O)N[C@@H](CC(=O)O)C(=O)N[C@@H](CCC(N)=O)C(=O)N[C@@H](CC(N)=O)C(=O)N[C@@H](CS)C(=O)N[C@@H](CCCCN)C(=O)N[C@@H](CC(C)C)C(=O)O [compound 115]	> 50000	2	
CC[C@H](C)[C@H](NC(=O)[C@H](CCC(N)=O)NC(=O)[C@H](CO)NC(=O)[C@H](CCC(=O)O)NC(=O)[C@H](CC(C)C)NC(=O)[C@@H](N)CCC(=O)O)C(=O)N[C@@H](CO)C(=O)N[C@@H](CCC(=O)O)C(=O)N[C@@H](CC(C)C)C(=O)O [compound 144]	> 50000	1	IC50 [4, 9]: > 50000 nM
CC[C@H](C)[C@H](NC(=O)[C@H](CCCNC(=N)N)NC(=O)[C@H](CC(=O)O)NC(=O)[C@H](CCC(=O)O)NC(=O)[C@H](CO)NC(=O)CNC(=O)[C@H](CCC(=O)O)NC(=O)[C@@H](NC(=O)[C@@H]1CCCN1)[C@@H](C)CC)C(=O)O [compound 23]		0	IC50 ([1]; cells printed as dash): > 50000 nM
CC[C@H](C)[C@H](NC(=O)[C@H](CCC(N)=O)NC(=O)[C@H](CCC(=O)O)NC(=O)[C@H](CCC(=O)O)NC(=O)[C@H](Cc1ccccc1)NC(=O)[C@@H](NC(=O)[C@H](CCCCN)NC(=O)[C@H](CCCCN)NC(=O)[C@H](CC(C)C)NC(=O)[C@@H](N)CCCCN)[C@@H](C)CC)C(=O)O [compound 156]	> 50000	1	IC50 [1, 7]: > 50000 nM
CC(C)C[C@H](NC(=O)[C@@H](N)CCC(=O)O)C(=O)N[C@@H](CCCNC(=N)N)C(=O)N[C@@H](CO)C(=O)N[C@@H](CCCCN)C(=O)N[C@@H](CCCNC(=N)N)C(=O)N[C@@H](CCC(=O)O)C(=O)N[C@@H](CCC(N)=O)C(=O)N[C@@H](CCC(=O)O)C(=O)N[C@H](C(=O)O)C(C)C [compound 183]	3030	0	IC50 [1, 7]: > 50000 nM; IC50 [4, 9]: 18800 nM
CC(C)C[C@H](NC(=O)[C@H](CCCCN)NC(=O)[C@@H](NC(=O)[C@@H](NC(=O)[C@H](CCCCN)NC(=O)[C@H](CC(=O)O)NC(=O)[C@H](C)NC(=O)[C@H](CC(C)C)NC(=O)[C@@H](N)CCC(=O)O)C(C)C)[C@@H](C)O)C(=O)O [compound 94]		3	IC50 [5]: 114 nM; IC50 [1, 10]: 38800 nM; IC50 [4]: 2510 nM
CC[C@H](C)[C@H](NC(=O)[C@H](Cc1ccc(O)cc1)NC(=O)[C@H](CCC(N)=O)NC(=O)[C@H](CC(C)C)NC(=O)[C@@H](N)CCC(N)=O)C(=O)N[C@@H](CCC(=O)O)C(=O)N[C@@H](CCCNC(=N)N)C(=O)N[C@@H](CCC(=O)O)C(=O)N[C@@H](CCC(=O)O)C(=O)N[C@H](C(=O)O)C(C)C [compound 39]		2	IC50 ([2]; cells printed as dash): > 50000 nM
CC[C@H](C)[C@H](NC(=O)[C@@H](N)CCCCN)C(=O)N[C@@H](CCC(=O)O)C(=O)N[C@@H](CCSC)C(=O)N[C@@H](CC(=O)O)C(=O)N[C@@H](CC(C)C)C(=O)N[C@@H](CCCCN)C(=O)N[C@@H](CC(=O)O)C(=O)N[C@@H](CC(C)C)C(=O)O [compound 173]	> 50000	0	
CC[C@H](C)[C@H](NC(=O)[C@H](Cc1c[nH]cn1)NC(=O)[C@H](C)NC(=O)[C@H](CCC(=O)O)NC(=O)[C@H](CC(C)C)NC(=O)[C@H](CC(=O)O)NC(=O)[C@H](CCCCN)NC(=O)[C@H](CC(C)C)NC(=O)[C@@H](N)CC(=O)O)C(=O)O [compound 174]	21100	0	IC50 [1, 7]: > 50000 nM; IC50 [4, 9]: > 50000 nM
CC[C@H](C)[C@H](NC(=O)[C@H](C)NC(=O)[C@H](Cc1ccc(O)cc1)NC(=O)[C@@H](NC(=O)[C@H](Cc1c[nH]cn1)NC(=O)[C@@H]1CCCN1C(=O)[C@@H]1CCCN1C(=O)[C@H](CCSC)NC(=O)[C@@H](N)CCC(=O)O)[C@@H](C)CC)C(=O)O [compound 62]			IC50 [1, 10]: 85 nM
CC(C)C[C@H](NC(=O)[C@H](CCCNC(=N)N)NC(=O)[C@H](Cc1c[nH]c2ccccc12)NC(=O)[C@H](Cc1c[nH]c2ccccc12)NC(=O)[C@H](CCC(N)=O)NC(=O)[C@H](Cc1c[nH]c2ccccc12)NC(=O)[C@H](CC(N)=O)NC(=O)[C@H](C)NC(=O)[C@H](CC(C)C)NC(=O)[C@@H](N)CCCCN)C(=O)O [compound 126]	> 50000	2	IC50 [6]: 54 nM
CSCC[C@H](NC(=O)[C@H](CC(C)C)NC(=O)[C@@H](N)CC(=O)O)C(=O)N[C@@H](CO)C(=O)N[C@@H](CO)C(=O)N[C@@H](CCCCN)C(=O)N[C@@H](CC(=O)O)C(=O)N[C@@H](CC(=O)O)C(=O)N[C@H](C(=O)O)C(C)C [compound 151]		1	IC50 [1, 7]: > 50000 nM
CC[C@H](C)[C@H](NC(=O)[C@H](CCSC)NC(=O)[C@@H](N)CCC(=O)O)C(=O)N[C@@H](CCC(N)=O)C(=O)N[C@@H](CC(C)C)C(=O)N[C@@H](CCC(N)=O)C(=O)N[C@@H](CCC(=O)O)C(=O)N[C@@H](CCC(=O)O)C(=O)N[C@@H](CC(C)C)C(=O)O [compound 120]			Alleles bound [3]: 2
CC[C@H](C)[C@H](NC(=O)[C@@H](NC(=O)[C@@H](NC(=O)[C@H](Cc1c[nH]cn1)NC(=O)CNC(=O)[C@H](CC(N)=O)NC(=O)[C@H](CO)NC(=O)[C@H](CC(C)C)NC(=O)[C@@H](N)Cc1ccccc1)C(C)C)[C@@H](C)O)C(=O)O			Alleles bound ([3]; Table 12, peptides derived from apoptotic cell-associated proteins, pools 5-6, number of the five HLA-A2 alleles bound): 4
CC[C@H](C)[C@H](NC(=O)[C@@H](NC(=O)[C@@H](NC(=O)[C@H](CCC(N)=O)NC(=O)[C@@H](NC(=O)[C@H](CC(N)=O)NC(=O)[C@H](CCC(=O)O)NC(=O)[C@H](CCCNC(=N)N)NC(=O)[C@H](CC(C)C)NC(=O)[C@@H](N)CCC(=O)O)[C@@H](C)O)[C@@H](C)O)[C@@H](C)O)C(=O)O [compound 25]			Alleles bound [3]: 0
CC[C@H](C)[C@H](NC(=O)[C@H](Cc1ccccc1)NC(=O)[C@H](CCSC)NC(=O)[C@@H](NC(=O)[C@H](Cc1c[nH]cn1)NC(=O)[C@H](CC(N)=O)NC(=O)[C@H](Cc1ccccc1)NC(=O)[C@H](CC(C)C)NC(=O)[C@@H](N)CCC(N)=O)[C@@H](C)O)C(=O)O [compound 64]		5	
CC(C)C[C@H](NC(=O)[C@H](CCC(=O)O)NC(=O)[C@H](CCC(=O)O)NC(=O)[C@H](C)NC(=O)[C@H](CCC(=O)O)NC(=O)[C@H](C)NC(=O)[C@H](CS)NC(=O)[C@H](CC(C)C)NC(=O)[C@@H](N)CCC(=O)O)C(=O)O [compound 137]		1	
CC(C)C[C@H](NC(=O)[C@H](CCCNC(=N)N)NC(=O)[C@H](CCC(=O)O)NC(=O)[C@H](CCC(=O)O)NC(=O)[C@H](CCC(=O)O)NC(=O)CNC(=O)[C@H](CCC(=O)O)NC(=O)[C@H](CC(C)C)NC(=O)[C@H](CC(C)C)NC(=O)[C@@H](N)CCCCN)C(=O)O			Alleles bound ([3]; Table 11, peptides derived from apoptotic cell-associated proteins, pools 1-4, number of the five HLA-A2 alleles bound): 2
CC[C@H](C)[C@H](NC(=O)[C@H](CO)NC(=O)[C@H](CC(C)C)NC(=O)[C@H](CC(N)=O)NC(=O)[C@H](Cc1c[nH]c2ccccc12)NC(=O)[C@H](CCC(=O)O)NC(=O)[C@H](Cc1c[nH]c2ccccc12)NC(=O)[C@H](CO)NC(=O)[C@H](CC(C)C)NC(=O)[C@@H](N)Cc1c[nH]cn1)C(=O)O [compound 189]		4	
